This experiment addresses CRBN-DDB1 protein complex (Homo sapiens, UniProt Q96SW2). Briefly: Fluorescence polarization (FP) assay, displacement of Cy5-labelled thalidomide. As to conditions: read-out: CRBN binding Ki, 25 nM CRBN-DDB1, 5 nM Cy5-labelled thalidomide.

The chains behind the UniProt entries cited, without tags or fusion partners.
UniProt Q96SW2, whole entry: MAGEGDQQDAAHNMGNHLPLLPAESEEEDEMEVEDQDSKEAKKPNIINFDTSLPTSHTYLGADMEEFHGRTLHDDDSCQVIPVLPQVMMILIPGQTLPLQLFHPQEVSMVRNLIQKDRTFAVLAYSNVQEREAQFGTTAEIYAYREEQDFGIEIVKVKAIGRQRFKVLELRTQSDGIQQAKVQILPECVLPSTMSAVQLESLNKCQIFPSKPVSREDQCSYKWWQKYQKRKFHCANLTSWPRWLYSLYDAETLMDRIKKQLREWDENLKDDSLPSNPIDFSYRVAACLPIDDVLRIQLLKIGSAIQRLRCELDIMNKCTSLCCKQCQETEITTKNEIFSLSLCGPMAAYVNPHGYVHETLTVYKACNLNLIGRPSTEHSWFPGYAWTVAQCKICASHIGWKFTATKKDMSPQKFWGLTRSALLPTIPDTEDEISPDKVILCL
UniProt Q16531, whole entry partner: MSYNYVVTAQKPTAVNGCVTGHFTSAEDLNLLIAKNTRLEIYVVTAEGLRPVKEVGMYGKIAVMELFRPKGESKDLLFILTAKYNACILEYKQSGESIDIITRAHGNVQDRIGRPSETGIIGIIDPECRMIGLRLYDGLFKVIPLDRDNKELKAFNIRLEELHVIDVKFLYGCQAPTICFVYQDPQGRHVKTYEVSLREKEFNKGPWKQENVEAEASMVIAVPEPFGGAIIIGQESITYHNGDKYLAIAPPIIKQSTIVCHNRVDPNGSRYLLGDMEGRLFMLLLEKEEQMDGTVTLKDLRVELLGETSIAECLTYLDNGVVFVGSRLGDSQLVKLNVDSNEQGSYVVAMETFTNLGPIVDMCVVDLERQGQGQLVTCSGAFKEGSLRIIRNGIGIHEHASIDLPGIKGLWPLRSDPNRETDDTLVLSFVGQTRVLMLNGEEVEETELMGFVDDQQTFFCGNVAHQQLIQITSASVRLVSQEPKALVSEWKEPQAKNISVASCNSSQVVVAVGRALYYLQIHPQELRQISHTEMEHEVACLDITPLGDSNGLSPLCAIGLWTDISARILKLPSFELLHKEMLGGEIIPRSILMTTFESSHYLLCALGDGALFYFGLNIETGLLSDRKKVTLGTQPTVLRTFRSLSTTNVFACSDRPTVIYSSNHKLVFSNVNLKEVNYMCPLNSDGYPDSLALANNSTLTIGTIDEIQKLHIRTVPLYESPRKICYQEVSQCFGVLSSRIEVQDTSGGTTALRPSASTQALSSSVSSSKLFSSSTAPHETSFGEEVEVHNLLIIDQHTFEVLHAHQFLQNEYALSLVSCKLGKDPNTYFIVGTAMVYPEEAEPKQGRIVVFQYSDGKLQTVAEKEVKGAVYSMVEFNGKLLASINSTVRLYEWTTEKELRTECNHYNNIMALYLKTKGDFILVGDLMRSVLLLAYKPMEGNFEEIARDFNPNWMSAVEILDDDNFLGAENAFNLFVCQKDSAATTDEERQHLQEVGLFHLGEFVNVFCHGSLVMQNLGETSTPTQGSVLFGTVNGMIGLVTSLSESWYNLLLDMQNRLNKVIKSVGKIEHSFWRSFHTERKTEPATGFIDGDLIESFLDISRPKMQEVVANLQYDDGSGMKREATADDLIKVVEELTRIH

As to `O=C1CCC(NC(=O)c2cc3cscc3s2)C(=O)N1` (stereo not shown), the Ki was in the range of 1 to 10 µM.

For orientation: Ki means a measure of affinity in units of concentration, obtained from inhibition or displacement.

Source of the values: patent US20240343706A1.
